Experimental data taken from PubChem BioAssay AID1974 (The Scripps Research Institute Molecular Screening Center, 2009).
The entries are a selection whose mix differs from that of the whole data set. Active and inactive are the calls of the source.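 The calls were made as follows: active = inhibition above the campaign mean inhibition plus 3 SD (cut at about 35% in these data); inactive = the rest.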

Sequences of proteins named here, by UniProt entry; tags and fusion partners are left off. A change or cut given only in a name is not applied to a line headed by its entry.
UniProt P78417: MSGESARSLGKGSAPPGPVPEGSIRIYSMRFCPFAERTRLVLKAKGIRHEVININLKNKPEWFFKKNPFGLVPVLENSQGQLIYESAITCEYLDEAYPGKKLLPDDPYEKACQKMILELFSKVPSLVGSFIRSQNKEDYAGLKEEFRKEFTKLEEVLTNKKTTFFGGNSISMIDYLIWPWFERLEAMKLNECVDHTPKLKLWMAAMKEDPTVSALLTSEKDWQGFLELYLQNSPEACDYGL

Molecular target: Glutathione S-transferase omega-1 (Homo sapiens) (UniProt P78417)
Experiment: human GSTO1 enzyme inhibition – biochemical, fluorescence polarization, counter-screen for RBBP9 inhibitor project, primary screen (AID 1974);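 also: 0% = GSTO1-1 with DMSO and 100% = wells lacking GSTO1-1 enzyme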
Conditions: recombinant GSTO1, activity-based probe fluorescence polarization; at 5.96 µM; active compounds read high

SMILES	inhibition
COc1cc(C2NCCC3(OCCO3)C2(C)C)cc(OC)c1OC (stereo not drawn)	inactive: 4.52%
O=C(OC1CN2CCC1CC2)c1ccc(Cl)cc1 (stereo not drawn)	inactive: -3.85%
CS(=O)(=O)c1ccc(Cl)c(NC(=O)COC(=O)C(O)(c2ccccc2)c2ccccc2)c1	inactive: 29.4%
COc1cc(C(=O)NCC2(N3CCOCC3)CCCCC2)cc(Cl)c1OC(C)C	inactive: -2.16%
O=[As](O)(O)c1cccnc1	inactive: -5.04%
O=[As](O)(c1cccc(O)c1)c1cccc(O)c1	inactive: 5.56%
Cc1cccc(OCC(=O)OC2CN3CCC2CC3)c1 (stereo not drawn)	inactive: 20.9%
C[C@@H]1C=CCP(=O)(Oc2ccccc2)O1 (stereo partly drawn)	inactive: 3.24%
C[C@H]1OP(=O)(Oc2ccccc2)C[C@@H]2O[C@@H]21 (stereo partly drawn)	inactive: 2.25%
CC(=O)c1ccc(N2CC2c2ccncc2)cc1 (stereo not drawn)	inactive: 10.5%
CC(=O)Nc1ccc(Oc2c([N+](=O)[O-])cc([N+](=O)[O-])cc2[N+](=O)[O-])cc1	inactive: 2.66%
CC(=O)Nc1ccc([As](=O)(O)O)c(O)c1	inactive: 4.04%
CCOc1ccc(C2=NCC(CBr)S2)cc1 (stereo not drawn)	inactive: 4.89%
O=P1(Nc2nc3ccc(Cl)cc3s2)COc2ccccc2O1 (stereo not drawn)	inactive: 3.26%
CC(C)(C)C(=O)NC(Sc1ccccc1)C(Cl)(Cl)Cl (stereo not drawn)	inactive: 10.2%
CCC(=O)N1C2C3N(C(=O)CC)C1C1N(C(=O)CC)C(C(N1C(=O)CC)N3C(=O)CC)N2C(=O)CC	inactive: -1.21%
O=C(OC1CN2CCC1CC2)c1ccccc1 (stereo not drawn)	inactive: 5.59%
Cc1ccc(OP(=O)(Nc2ccccn2)Oc2ccc(C)cc2)cc1	inactive: 3.41%
CC(=O)NC(SC(=S)N(CC(C)C)CC(C)C)C(Cl)(Cl)Cl (stereo not drawn)	inactive: -1.1%
COC(=O)c1cc2c(s1)N=C(c1ccccc1)N(C)P2(=O)N1CCOCC1 (stereo not drawn)	inactive: 0.14%
CN(C)C(=O)Oc1noc2ccccc12	inactive: 7.25%
Cc1ccccc1OP(=O)(Nc1ccccn1)Oc1ccccc1C	inactive: -1.84%
CCOC(=O)NC(Sc1ccccc1)C(Cl)(Cl)Cl (stereo not drawn)	inactive: -0.01%
Cc1ccc(NP(=O)(Oc2cccc(C)c2)Oc2cccc(C)c2)nc1	inactive: 1.46%
c1ccc(-c2nn[nH]n2)c(-c2nn[nH]n2)c1	inactive: 1.66%
O=C(NC1CCS(=O)(=O)C1)NP(=S)(Oc1ccccc1)Oc1ccccc1 (stereo not drawn)	inactive: 2.71%

SMILES	inhibition
CCNC(=S)/N=C(\N)N[N+](=O)[O-]	inactive: 3.26%
O=[As](O)(c1ccccc1)c1ccc(O)cc1	inactive: -14.9%
O=[N+]([O-])c1ncn(CCn2cnc([N+](=O)[O-])n2)n1	inactive: 0.79%
CC(=O)NC(SC(=S)N(C)C)C(Cl)(Cl)Cl (stereo not drawn)	inactive: -1.08%
O=[N+]([O-])c1ccc(O)c(/C=N/Nc2ccc([N+](=O)[O-])cc2[N+](=O)[O-])c1	inactive: 4.33%
O=C(OC1CN2CCC1CC2)c1cccc(Cl)c1 (stereo not drawn)	inactive: -1.68%
Nc1ccc([As](=O)(O)c2ccc([N+](=O)[O-])cc2)cc1	inactive: -8.58%
C(Cc1nn[nH]n1)Cc1nn[nH]n1	inactive: 1.35%
CN(C)C1(CNC(=O)c2ccc(Cl)c(S(N)(=O)=O)c2)CCCCC1	inactive: 1.85%
O=P(Nc1ccccn1)(c1ccc(Br)cc1)c1ccc(Br)cc1	inactive: -2.66%
C[C@H]1OP(=O)(Oc2ccccc2)[C@H](O)[C@H](O)[C@H]1N=[N+]=[N-] (stereo partly drawn)	inactive: 5.13%
O=P(Nc1nc2ccccc2s1)(c1ccccc1)c1ccccc1	inactive: -12.1%
O=P(Nc1nccs1)(c1ccccc1)c1ccccc1	inactive: 0.48%
CC(C)C(=O)NC(Sc1ccccc1)C(Cl)(Cl)Cl (stereo not drawn)	inactive: 4.83%
c1nnnn1CCn1cnnn1	inactive: 9.69%
CCN(/C(=N/P(=O)(N1CCOCC1)N1CCOCC1)N1CCOCC1)c1ccc(OC)cc1	inactive: 3.49%
C[N+]1=C2C=CC=CC=C2SC12C([N+](=O)[O-])=CC([N+](=O)[O-])=C[C-]2[N+](=O)[O-] (stereo not drawn)	active: 81%
Nc1ccc([As](=O)(O)c2ccc(N)cc2)cc1	inactive: 3.6%
CC1CCN(C(=O)Oc2c(Cl)cc(Cl)c3cccnc23)CC1	inactive: -4.71%
CN(C)C(=O)OCCc1n(C)cc[n+]1C	inactive: 3.26%
CC(C)=N/N=C(\N)N[N+](=O)[O-]	inactive: -2.72%
COc1ccc(C2=NCC(CBr)S2)cc1 (stereo not drawn)	inactive: -6.97%
O=[N+]([O-])c1cc([N+](=O)[O-])c(CCNc2ccccc2)c([N+](=O)[O-])c1	active: 43.3%
CCc1nc2c(n1)c1c(non1O)c1c2no[n+]1[O-]	inactive: 31.3%
Cc1ccc(NP(=O)(Oc2ccccc2)Oc2ccccc2)nc1	inactive: -3.63%
CC(=O)N1C2C3N(C(C)=O)C1C1N(C(C)=O)C(C(N1C(C)=O)N3C(C)=O)N2C(C)=O	inactive: 6.96%

SMILES	inhibition
O=[N+]([O-])c1cccc2n[nH]nc12	inactive: -1.9%
O=[N+]([O-])c1ncn(CCn2ncnc2[N+](=O)[O-])n1	inactive: 13.6%
CC(C)(C)C(=O)NC(Sc1ccncn1)C(Cl)(Cl)Cl (stereo not drawn)	inactive: 5.77%
O=[N+]([O-])c1cccc(NC2=NCC(CBr)S2)c1 (stereo not drawn)	inactive: 0.72%
O=C(Nc1cc([As](=O)(O)O)ccc1O)c1ccccc1	inactive: 3.77%
O=[N+]([O-])c1cc([N+](=O)[O-])c(CCN2CCOCC2)c([N+](=O)[O-])c1	active: 66%
CCN(N=Nc1nonc1N)c1nonc1N	inactive: -2.56%
O=P(Nc1nc2ccc(Cl)cc2s1)(c1ccccc1)c1ccccc1	inactive: -4.21%
O=C(O)c1ccccc1[As](=O)(O)O	inactive: -6.07%
CC(=O)Nc1ccc([As](=O)(O)O)cc1	inactive: 2.58%
CN(C(=O)Cc1ccc(Cl)c(Cl)c1)[C@H]1CCCC[C@@H]1N1CCCC1	inactive: 23.9%
Cc1ccc(NP(=O)(Oc2ccccc2F)Oc2ccccc2F)nc1	inactive: 5.49%
CCOP(=O)(Nc1ccccc1)OCC	inactive: -2.71%
Cc1cc(SC(NC(=O)c2ccc(F)cc2)C(Cl)(Cl)Cl)ncn1 (stereo not drawn)	inactive: 4.56%
Cc1c2non([O-])c-2c(C)[n+](=O)[n+]1[O-]	inactive: -7.22%
O=C(NC(Sc1ccncn1)C(Cl)(Cl)Cl)c1ccccc1 (stereo not drawn)	inactive: 9.29%
Oc1ccccc1CNc1ccccn1	inactive: -1.5%
CC(C)CC(=O)NC(Sc1ccc(Cl)cc1)C(Cl)(Cl)Cl (stereo not drawn)	inactive: -0.71%
Nc1cc(N)c2nonc2c1[N+](=O)[O-]	inactive: 18.9%
Cc1ccc(N/C(=N/P(=O)(N2CCOCC2)N2CCOCC2)N2CCOCC2)cc1	inactive: 4.53%
CN(C(=O)Cc1ccc(Cl)c(Cl)c1)[C@H]1CCCC[C@H]1N1CCCC1	inactive: 4.34%
NC(=O)c1cc([N+](=O)[O-])cc([N+](=O)[O-])c1N	inactive: 6.88%
Clc1ccc(Cl)c(NC2=NCC(CBr)S2)c1 (stereo not drawn)	inactive: -5.2%
CN1CCCC(OC(=O)C(c2ccccc2)c2ccccc2)C1 (stereo not drawn)	inactive: -2.4%
Cc1ccc(OP(=O)(Nc2nccs2)Oc2ccc(C)cc2)cc1	inactive: 10.1%
COc1ccccc1OP(=O)(Nc1ccc(C)cn1)Oc1ccccc1OC	inactive: 0.61%
